The source of these data is PMC9541285, “Drug‐dependent inhibition of nucleotide hydrolysis in the heterodimeric ABC multidrug transporter PatAB from Streptococcus pneumoniae” (The Febs Journal, 2022).

The data set has as its system Nc1ncnc2c1ncn2[C@@H]1O[C@H](COP(=O)(O)OP(=O)(O)OP(=O)(O)O)[C@@H](O)[C@H]1O. Description: purified protein. As to conditions: 10 mM MgCl2, pH 7.0, 30 °C, DDM, no drug.

Turning to “PatAB (PatA^WTB^WT) (Streptococcus pneumoniae)”, the Km is 3000 ± 900 µM.
